Earlier results in patent US20240342285A1, “TREATMENT OF CANCER PATIENTS WITH TUMOR INFILTRATING LYMPHOCYTE THERAPIES IN COMBINATION WITH KRAS INHIBITORS” (Iovance Biotherapeutics, Inc., priority 2021, published 2024).

Settings: 1 mg vial, lot 10200121 (Cellgenix), per COA

For “rhIL-2: purified, lyophilized recombinant human interleukin-2”, the specific activity is given as 25×10^6 IU/mg.
